Results reported in PMC11859980, “Tailored Intranasal Albumin Caged Selegiline-α Synuclein siRNA Liposome with Improved Efficiency in Parkinson’s Model” (Pharmaceutics, 2025).

Test system: MAO-B
Format: in vivo, rats
Details: rotenone 3 mg/kg/day IP 11 days; treatment days 12 and 20; day 30; ELISA

Structure (SMILES): C#CCN(C)[C@H](C)Cc1ccccc1 [IV Sel solution, Selegiline]
- MAO-B level in brain tissue: 170.83 ± 13.93 ng/g
